Results: patent publication US20250177353A1 (priority 2021, published 2025)

Experiment: SAD phase I study: plasma pharmacokinetics of Compound 1 (Table 2)
[1] = 100 mg Fasted, single oral dose
[2] = 100 mg Fasted, single oral dose (N=1)
[3] = 200 mg Fasted, single oral dose
[4] = 200 mg Fasted, single oral dose (N=2)
[5] = 500 mg Fasted, single oral dose
[6] = 500 mg Fasted, single oral dose (N=3)
[7] = 600 mg Fasted Micronized, single oral dose

## Cn1c(COc2ccc([N+](=O)[O-])cc2[N+](=O)[O-])cnc1[N+](=O)[O-]
30 mg Fasted, single oral dose
  AUClast, Geometric Mean: 4.46 ng·h/mL
  AUClast, Median: 4.59 ng·h/mL
  AUClast/D, Geometric Mean: 0.149 ng·h/mL/mg
  AUClast/D, Mean (SD): 0.151 (0.0304) h*ng/mL/mg
  AUClast/D, Median: 0.153 ng·h/mL/mg
  Cmax, Geometric Mean: 1.77 ng/mL
  Cmax, Median: 1.85 ng/mL
  Cmax/D, Geometric Mean: 0.0589 ng/mL/mg
  Cmax/D, Mean (SD): 0.0618 (0.0219) ng/mL/mg
  Cmax/D, Median: 0.0615 ng/mL/mg
  Tlag, Median: 0.500 h
  Tlast, Median: 4.00 h
[1]
  AUClast, Geometric Mean: 10.0 ng·h/mL
  AUClast, Median: 9.71 ng·h/mL
  AUClast/D, Geometric Mean: 0.100 ng·h/mL/mg
  AUClast/D, Mean (SD): 0.107 (0.0427) h*ng/mL/mg
  AUClast/D, Median: 0.0971 ng·h/mL/mg
  Cmax, Geometric Mean: 3.46 ng/mL
  Cmax, Median: 3.96 ng/mL
  Cmax/D, Geometric Mean: 0.0346 ng/mL/mg
  Cmax/D, Mean (SD): 0.0373 (0.0152) ng/mL/mg
  Cmax/D, Median: 0.0396 ng/mL/mg
  Tlag, Median: 0.500 h
  Tlast, Median: 6.00 h
[2]
  AUC0-24 h, Median: 0.0188 µg·h/mL
  AUC extrapolated, Median: 4.54%
  AUCinf, Median: 18.8 ng·h/mL
  AUCinf/D, Median: 0.188 ng·h/mL/mg
  CL/F, Median: 5330 L/h
  t1/2, Median: 1.05 h
  λz, Median: 0.659 h⁻¹
[3]
  AUClast, Geometric Mean: 36.3 ng·h/mL
  AUClast, Median: 40.5 ng·h/mL
  AUClast/D, Geometric Mean: 0.181 ng·h/mL/mg
  AUClast/D, Mean (SD): 0.191 (0.0642) h*ng/mL/mg
  AUClast/D, Median: 0.202 ng·h/mL/mg
  Cmax, Geometric Mean: 11.3 ng/mL
  Cmax, Median: 11.4 ng/mL
  Cmax/D, Geometric Mean: 0.0567 ng/mL/mg
  Cmax/D, Mean (SD): 0.0615 (0.0264) ng/mL/mg
  Cmax/D, Median: 0.0568 ng/mL/mg
  Tlag, Median: 0.500 h
  Tlast, Median: 8.00 h
[4]
  AUC0-24 h, Median: 0.0431 µg·h/mL
  AUC extrapolated, Median: 6.14%
  AUCinf, Median: 43.1 ng·h/mL
  AUCinf/D, Median: 0.215 ng·h/mL/mg
  CL/F, Median: 4760 L/h
  t1/2, Median: 1.49 h
  λz, Median: 0.476 h⁻¹
[5]
  AUC0-24 h, Geometric Mean: 53.5 mg·h/mL
  AUC0-24 h, Mean (SD): 68.0 (60.4) h*mg/mL
  AUC0-24 h, Median: 42500 µg·h/mL
  AUClast, Geometric Mean: 44.3 ng·h/mL
  AUClast, Median: 37.8 ng·h/mL
  AUClast/D, Geometric Mean: 0.0887 ng·h/mL/mg
  AUClast/D, Mean (SD): 0.108 (0.0882) h*ng/mL/mg
  AUClast/D, Median: 0.0755 ng·h/mL/mg
  Cmax, Geometric Mean: 14.8 ng/mL
  Cmax, Median: 14.2 ng/mL
  Cmax/D, Geometric Mean: 0.0297 ng/mL/mg
  Cmax/D, Mean (SD): 0.0329 (0.0156) ng/mL/mg
  Cmax/D, Median: 0.0284 ng/mL/mg
  Geometric mean AUC0-24h: 53.5 ng·h/mL
  Tlag, Median: 0.250 h
  Tlast, Median: 6.00 h
  Tmax, Median: 3.0 h
[6]
  AUC extrapolated, Median: 2.19%
  AUCinf, Median: 37.9 ng·h/mL
  AUCinf/D, Median: 0.0757 ng·h/mL/mg
  CL/F, Median: 13200 L/h
  t1/2, Median: 0.865 h
  λz, Median: 0.801 h⁻¹
500 mg Fed (50% fat meal), single oral dose
  Geometric mean AUC0-24h: 273 ng·h/mL
500 mg Fed, single oral dose
  AUC0-24 h, Geometric Mean: 273 mg·h/mL
  AUC0-24 h, Mean (SD): 273 (22.1) h*mg/mL
  AUC0-24 h, Median: 261000 µg·h/mL
  AUC extrapolated, Geometric Mean: 4.83%
  AUC extrapolated, Mean (SD): 5.82 (4.55) %
  AUC extrapolated, Median: 3.41%
  AUCinf, Geometric Mean: 280 ng·h/mL
  AUCinf, Mean (SD): 281 (17.6) h*ng/mL
  AUCinf, Median: 271 ng·h/mL
  AUCinf/D, Geometric Mean: 0.560 ng·h/mL/mg
  AUCinf/D, Mean (SD): 0.561 (0.0353) h*ng/mL/mg
  AUCinf/D, Median: 0.541 ng·h/mL/mg
  AUClast, Geometric Mean: 183 ng·h/mL
  AUClast, Mean (SD): 196 (78.0) h*ng/mL
  AUClast, Median: 198 ng·h/mL
  AUClast/D, Geometric Mean: 0.365 ng·h/mL/mg
  AUClast/D, Mean (SD): 0.393 (0.156) h*ng/mL/mg
  AUClast/D, Median: 0.396 ng·h/mL/mg
  CL/F, Geometric Mean: 1780 L/h
  CL/F, Mean (SD): 1790 (108) L/h
  CL/F, Median: 1850 L/h
  Cmax, Geometric Mean: 25.3 ng/mL
  Cmax, Mean (SD): 27.7 (13.6) ng/mL
  Cmax, Median: 25.1 ng/mL
  Cmax/D, Geometric Mean: 0.0505 ng/mL/mg
  Cmax/D, Mean (SD): 0.0554 (0.0273) ng/mL/mg
  Cmax/D, Median: 0.0502 ng/mL/mg
  Tlag, Median: 1.00 h
  Tlast, Median: 18.0 h
  Tmax, Median: 6.0 h
  t1/2, Geometric Mean: 3.42 h
  t1/2, Mean (SD): 3.45 (0.537) h
  t1/2, Median: 3.31 h
  λz, Geometric Mean: 0.203 h⁻¹
  λz, Mean (SD): 0.204 (0.0304) /h
  λz, Median: 0.210 h⁻¹
[7]
  AUC0-24 h, Geometric Mean: 197 mg·h/mL
  AUC0-24 h, Mean (SD): 215 (91.9) h*mg/mL
  AUC0-24 h, Median: 221000 µg·h/mL
  AUC extrapolated, Geometric Mean: 1.07%
  AUC extrapolated, Mean (SD): 1.31 (0.861) %
  AUC extrapolated, Median: 0.888%
  AUCinf, Geometric Mean: 197 ng·h/mL
